The structures appear in SMILES notation. Converted amounts (≈) assume the structure as drawn.

In the test the test system is E. coli MG1655. Kind of test: microbe, parasite or virus in culture. It is filed as cell-based. Conditions: Escherichia coli, MG1655, read-out: Solid-agar MIC. The protocol:
Minimum inhibitory concentration (MIC) values were determined in triplicate as described ([55]). […] All compounds were purchased from Sigma.

In the case of `COc1cc(Cc2cnc(N)nc2N)cc(OC)c1OC` [TMP, trimethoprim], the MIC was 0.4 µg/mL (≈ 1.38 µM).

Source of the values: paper PMC11784200, “Insights into antibiotic resistance promoted by quinolone exposure” (Antimicrobial Agents and Chemotherapy, 2024).
